Measured values from US20190092802A1, “ANTAGONISTS OF NK1 RECEPTORS DERIVED FROM CARBOHYDRATES, PRODUCTION METHOD AND MEDICAL USE” (CONSEJO SUPERIOR DE INVESTIGACIONES CIENTIFICAS (CSIC), priority 2015, published 2019).

Protein sequences, listed by entry. Tags and fused reporters are not part of them.
UniProt P25103, whole entry, species assumed: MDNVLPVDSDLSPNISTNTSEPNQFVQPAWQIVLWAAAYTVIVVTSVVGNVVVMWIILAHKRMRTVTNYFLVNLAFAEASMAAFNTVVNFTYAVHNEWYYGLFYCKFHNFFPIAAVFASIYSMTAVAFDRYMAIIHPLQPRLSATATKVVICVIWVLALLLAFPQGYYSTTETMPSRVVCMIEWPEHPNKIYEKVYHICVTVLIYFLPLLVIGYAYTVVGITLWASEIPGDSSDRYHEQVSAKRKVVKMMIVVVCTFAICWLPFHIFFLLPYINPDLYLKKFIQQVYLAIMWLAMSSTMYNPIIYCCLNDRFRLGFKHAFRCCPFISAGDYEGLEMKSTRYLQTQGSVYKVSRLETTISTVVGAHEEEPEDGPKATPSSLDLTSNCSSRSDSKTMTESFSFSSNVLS

Target: NK1 receptor (Homo sapiens, UniProt P25103)
Assay: IP-One assay (SP-induced IP1 accumulation in CHO cells transfected with NK1)
Format: cell-based
Set-up: expressed in transfected cells; host or cells: CHO cells, transient electroporation
Conditions: SP as positive control (agonist)

Kact: 1.64E−08±0.62 M
Substance: substance P [SP]
